The values that follow are results of earlier work, collected in publication PMC2696799 (European journal of immunology, 2009).

For this data set, the target named is CD80 ECD (Homo sapiens) (UniProt P33681). To be noted: cited from earlier work.

Regarding CTLA4 ECD (from UniProt P16410), the dissociation constant Kd is 2 µM.
